Measured values reported in patent US20070066574A1, “MYO-INOSITOL HEXAPHOSPHATE FOR TOPICAL USE” (priority 2003, published 2007).

Assay: Plasmatic and urinary phytate after topical administration (absorption by the skin)
Conditions: administered topically, passing into the bloodstream

## O=P(O)(O)O[C@H]1[C@H](OP(=O)(O)O)[C@@H](OP(=O)(O)O)[C@H](OP(=O)(O)O)[C@@H](OP(=O)(O)O)[C@H]1OP(=O)(O)O [phytate, myo-inositol hexaphosphate]
  absorption by the skin on topical administration: can be absorbed by the skin
